{"source": "paper PMC8324913", "about": "“Development of a CNS-permeable reactivator for nerve agent exposure: an iterative, multi-disciplinary approach” (2021)"}
{"target": "VX-adducted recombinant human AChE (Homo sapiens, UniProt P22303)", "assay": "Reactivation of VX-adducted acetylcholinesterase", "conditions": "VX-inhibited enzyme, 2 mM compound, measured at 28.9 min", "units": {"Maximum reactivation percentage observed": "%"}}
{"smiles": "C[C@@H](CN1CCCc2ccccc2C1)NC(=O)/C=N/O", "Maximum reactivation percentage observed": 24.8}
{"target": "VX-adducted recombinant human AChE (Homo sapiens, UniProt P22303)", "assay": "Reactivation of VX-adducted acetylcholinesterase", "conditions": "VX; oxime 18 µM to 2 mM, 30 min", "units": {"Overall reactivation rate, kr2": "M⁻¹ s⁻¹", "Reactivation rate, kr": "min⁻¹"}}
{"smiles": "C[C@@H](CN1CCCc2ccccc2C1)NC(=O)/C=N/O", "Overall reactivation rate, kr2": "0.34 ± 0.0483", "Reactivation rate, kr": "0.01 ± 0.0007"}
{"target": "NIMP-adducted acetylcholinesterase (Homo sapiens, UniProt P22303)", "assay": "Acetylcholinesterase reactivation screening (modified Ellman's assay)", "conditions": "100 µM oxime, NIMP-adducted AChE, fraction relative to control AChE"}
{"smiles": "O=C(/C=N/O)N1CCCN(C(=O)/C=N/O)CC1", "Fraction reactivated (t = 30 min) (mean)": 0.057}
{"smiles": "CC(C)(C)OC(=O)N1CC[C@H](NC(=O)/C=N/O)C1", "Fraction reactivated (t = 30 min) (mean)": 0.011}
{"smiles": "O=C(/C=N/O)NC1CCC1", "Fraction reactivated (t = 30 min) (mean)": 0.037}
{"smiles": "O=C(/C=N/O)NCCN1CCOCC1", "Fraction reactivated (t = 30 min) (mean)": 0.036}
{"smiles": "O=C(/C=N/O)NC1CC1", "Fraction reactivated (t = 30 min) (mean)": 0.048}
{"smiles": "CC(C)(C)OC(=O)N1CC(NC(=O)/C=N/O)C1", "Fraction reactivated (t = 30 min) (mean)": 0.026}
{"smiles": "O=C(/C=N/O)NCCN1CCCCCC1", "Fraction reactivated (t = 30 min) (mean)": 0.452}
{"smiles": "O=C(/C=N/O)N1CCC(N2CCCCC2)CC1", "Fraction reactivated (t = 30 min) (mean)": 0.009}
{"smiles": "CCCCNC(=O)/C=N/O", "Fraction reactivated (t = 30 min) (mean)": 0.057}
{"smiles": "CN1CCCN(C(=O)/C=N/O)CC1", "Fraction reactivated (t = 30 min) (mean)": 0.036}
{"smiles": "O=C(/C=N/O)N1CCN(Cc2cccc(Cl)c2)CC1", "Fraction reactivated (t = 30 min) (mean)": -0.009}
{"smiles": "CC(C)(C)OC(=O)NCCNC(=O)/C=N/O", "Fraction reactivated (t = 30 min) (mean)": 0.054}
{"smiles": "CC(C)CN1CCN(C(=O)/C=N/O)CC1", "Fraction reactivated (t = 30 min) (mean)": 0.008}
{"smiles": "CN(C)C1CCN(C(=O)/C=N/O)C1", "note": "(stereo not drawn)", "Fraction reactivated (t = 30 min) (mean)": 0.00853}
{"smiles": "O=C(/C=N/O)N1CCN(CC2CCCC2)CC1", "Fraction reactivated (t = 30 min) (mean)": 0.00224}
{"smiles": "CCN(CC)CC(C)NC(=O)/C=N/O", "note": "(stereo not drawn)", "Fraction reactivated (t = 30 min) (mean)": 0.055}
{"smiles": "O=C(/C=N/O)NCCN1CCCC1", "Fraction reactivated (t = 30 min) (mean)": 0.144}
{"smiles": "O=C(/C=N/O)NCc1ccccc1", "Fraction reactivated (t = 30 min) (mean)": 0.010}
{"smiles": "CC(C)(C)OC(=O)N1CCCC(NC(=O)/C=N/O)C1", "note": "(stereo not drawn)", "Fraction reactivated (t = 30 min) (mean)": 0.025}
{"smiles": "CC(C)(C)OC(=O)NC1CCN(C(=O)/C=N/O)C1", "note": "(stereo not drawn)", "Fraction reactivated (t = 30 min) (mean)": -0.011}
{"smiles": "C[C@@H](CN1CCc2ccccc2CC1)NC(=O)/C=N/O", "Fraction reactivated (t = 30 min) (mean)": 0.032}
{"smiles": "CC(CN1CCCCC1)NC(=O)/C=N/O", "note": "(stereo not drawn)", "Fraction reactivated (t = 30 min) (mean)": 0.051}
{"smiles": "O=C(/C=N/O)N1CCN(Cc2ccc(Cl)cc2)CC1", "Fraction reactivated (t = 30 min) (mean)": -0.00254}
{"smiles": "O=C(/C=N/O)N1CCN(CCc2cccs2)CC1", "Fraction reactivated (t = 30 min) (mean)": -0.018}
{"smiles": "O=C(/C=N/O)NC1CCCC1", "Fraction reactivated (t = 30 min) (mean)": -0.00663}
{"smiles": "CN(C)CCNC(=O)/C=N/O", "Fraction reactivated (t = 30 min) (mean)": 0.049}
{"smiles": "CC1CCN(CC(C)NC(=O)/C=N/O)CC1", "note": "(stereo not drawn)", "Fraction reactivated (t = 30 min) (mean)": 0.089}
{"smiles": "NCCNC(=O)/C=N/O", "Fraction reactivated (t = 30 min) (mean)": 0.033}
{"smiles": "C[C@@H](CN1CCCc2ccccc2C1)NC(=O)/C=N/O", "Fraction reactivated (t = 30 min) (mean)": 0.104}
{"smiles": "CC(CN(C)C)NC(=O)/C=N/O", "note": "(stereo not drawn)", "Fraction reactivated (t = 30 min) (mean)": 0.092}
{"smiles": "CCC(CN1CCCC1)NC(=O)/C=N/O", "note": "(stereo not drawn)", "Fraction reactivated (t = 30 min) (mean)": 0.024}
{"smiles": "CC(CN1CCCCCC1)NC(=O)/C=N/O", "note": "(stereo not drawn)", "Fraction reactivated (t = 30 min) (mean)": 0.232}
{"smiles": "O=C(/C=N/O)NCCCN1CCCCC1", "Fraction reactivated (t = 30 min) (mean)": 0.045}
{"target": "GB-adducted recombinant human AChE (Homo sapiens, UniProt P22303)", "assay": "Reactivation of GB-adducted acetylcholinesterase", "conditions": "GB-inhibited enzyme, 2 mM compound, measured at 33.2 min", "units": {"Maximum reactivation percentage observed": "%"}}
{"smiles": "C[C@@H](CN1CCCc2ccccc2C1)NC(=O)/C=N/O", "Maximum reactivation percentage observed": 9.5}
{"target": "GB-adducted recombinant human AChE (Homo sapiens, UniProt P22303)", "assay": "Reactivation of GB-adducted acetylcholinesterase", "conditions": "GB; oxime 18 µM to 2 mM, 30 min", "units": {"Overall reactivation rate, kr2": "M⁻¹ s⁻¹", "Reactivation rate, kr": "min⁻¹"}}
{"smiles": "C[C@@H](CN1CCCc2ccccc2C1)NC(=O)/C=N/O", "Overall reactivation rate, kr2": "0.113 ± 0.013", "Reactivation rate, kr": "0.004 ± 0.0001"}
